The values below are quoted from earlier work in patent US7208615B2, “Triple mineral salts of (-)-hydroxycitric acid and processes for preparing the same” (Laila Impex, priority 2004, dated 2007).

For this data set the following is noted: background art (Singh et al., Biol. Memoirs 1995).

For calcium salt of HCA, the solubility in water entry is reported as “not very soluble in water”.
